Laboratory results: ChEMBL document CHEMBL4819022, “Discovery of JNJ-63576253: A Clinical Stage Androgen Receptor Antagonist for F877L Mutant and Wild-Type Castration-Resistant Prostate Cancer (mCRPC)” (J Med Chem, 2021)
The source made the active and inactive calls.

Protein sequences, listed by entry. Tags and fused reporters are not part of them.
UniProt P10275, whole entry L702H: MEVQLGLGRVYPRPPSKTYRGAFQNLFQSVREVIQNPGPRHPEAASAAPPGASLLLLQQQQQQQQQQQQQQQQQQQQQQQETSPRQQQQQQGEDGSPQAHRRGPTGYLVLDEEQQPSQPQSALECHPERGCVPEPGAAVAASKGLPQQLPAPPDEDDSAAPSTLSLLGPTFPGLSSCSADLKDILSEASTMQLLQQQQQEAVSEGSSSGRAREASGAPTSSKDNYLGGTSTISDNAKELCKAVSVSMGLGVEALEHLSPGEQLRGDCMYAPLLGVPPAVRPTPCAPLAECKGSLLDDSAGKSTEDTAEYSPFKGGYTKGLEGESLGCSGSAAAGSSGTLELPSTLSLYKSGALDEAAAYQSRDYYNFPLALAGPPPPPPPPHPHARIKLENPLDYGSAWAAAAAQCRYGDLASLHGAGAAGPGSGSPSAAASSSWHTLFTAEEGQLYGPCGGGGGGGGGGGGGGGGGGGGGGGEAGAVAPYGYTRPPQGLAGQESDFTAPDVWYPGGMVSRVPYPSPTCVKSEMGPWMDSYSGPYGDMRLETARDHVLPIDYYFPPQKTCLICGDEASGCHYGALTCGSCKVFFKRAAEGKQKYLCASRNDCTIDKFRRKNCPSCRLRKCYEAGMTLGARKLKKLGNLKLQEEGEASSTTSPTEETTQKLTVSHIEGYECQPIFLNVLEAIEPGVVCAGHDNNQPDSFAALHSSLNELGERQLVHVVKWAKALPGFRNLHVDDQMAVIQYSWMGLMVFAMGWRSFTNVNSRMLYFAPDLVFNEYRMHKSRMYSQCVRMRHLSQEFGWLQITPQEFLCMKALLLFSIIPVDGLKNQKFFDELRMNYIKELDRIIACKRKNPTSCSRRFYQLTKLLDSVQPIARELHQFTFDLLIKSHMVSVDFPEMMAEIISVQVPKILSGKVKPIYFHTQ
UniProt P10275, whole entry W742C: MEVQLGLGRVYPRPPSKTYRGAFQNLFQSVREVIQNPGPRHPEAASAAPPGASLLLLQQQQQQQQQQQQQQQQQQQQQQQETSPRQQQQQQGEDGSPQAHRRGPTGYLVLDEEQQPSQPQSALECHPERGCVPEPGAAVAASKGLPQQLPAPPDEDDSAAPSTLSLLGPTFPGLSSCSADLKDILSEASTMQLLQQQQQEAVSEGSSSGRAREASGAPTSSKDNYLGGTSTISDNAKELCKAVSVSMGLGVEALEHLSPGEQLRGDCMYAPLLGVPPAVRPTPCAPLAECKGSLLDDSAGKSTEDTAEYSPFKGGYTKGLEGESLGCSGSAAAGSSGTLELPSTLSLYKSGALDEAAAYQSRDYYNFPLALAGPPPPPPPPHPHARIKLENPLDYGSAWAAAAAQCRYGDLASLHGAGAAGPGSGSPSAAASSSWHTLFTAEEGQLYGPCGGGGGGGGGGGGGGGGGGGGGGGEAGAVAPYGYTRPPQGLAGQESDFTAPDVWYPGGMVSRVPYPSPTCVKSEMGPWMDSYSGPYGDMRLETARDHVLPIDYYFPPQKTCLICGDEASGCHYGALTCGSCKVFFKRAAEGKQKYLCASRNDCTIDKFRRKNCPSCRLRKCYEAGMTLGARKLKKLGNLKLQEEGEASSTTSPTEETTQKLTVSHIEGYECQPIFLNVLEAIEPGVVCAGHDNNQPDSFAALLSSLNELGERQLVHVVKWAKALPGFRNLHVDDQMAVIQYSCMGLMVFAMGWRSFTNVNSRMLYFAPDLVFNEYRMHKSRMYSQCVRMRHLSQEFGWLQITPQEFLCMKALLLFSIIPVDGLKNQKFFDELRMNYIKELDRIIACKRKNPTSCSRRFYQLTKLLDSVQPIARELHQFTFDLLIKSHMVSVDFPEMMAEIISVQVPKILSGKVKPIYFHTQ
UniProt P10275, whole entry, looked up, stated change not applied: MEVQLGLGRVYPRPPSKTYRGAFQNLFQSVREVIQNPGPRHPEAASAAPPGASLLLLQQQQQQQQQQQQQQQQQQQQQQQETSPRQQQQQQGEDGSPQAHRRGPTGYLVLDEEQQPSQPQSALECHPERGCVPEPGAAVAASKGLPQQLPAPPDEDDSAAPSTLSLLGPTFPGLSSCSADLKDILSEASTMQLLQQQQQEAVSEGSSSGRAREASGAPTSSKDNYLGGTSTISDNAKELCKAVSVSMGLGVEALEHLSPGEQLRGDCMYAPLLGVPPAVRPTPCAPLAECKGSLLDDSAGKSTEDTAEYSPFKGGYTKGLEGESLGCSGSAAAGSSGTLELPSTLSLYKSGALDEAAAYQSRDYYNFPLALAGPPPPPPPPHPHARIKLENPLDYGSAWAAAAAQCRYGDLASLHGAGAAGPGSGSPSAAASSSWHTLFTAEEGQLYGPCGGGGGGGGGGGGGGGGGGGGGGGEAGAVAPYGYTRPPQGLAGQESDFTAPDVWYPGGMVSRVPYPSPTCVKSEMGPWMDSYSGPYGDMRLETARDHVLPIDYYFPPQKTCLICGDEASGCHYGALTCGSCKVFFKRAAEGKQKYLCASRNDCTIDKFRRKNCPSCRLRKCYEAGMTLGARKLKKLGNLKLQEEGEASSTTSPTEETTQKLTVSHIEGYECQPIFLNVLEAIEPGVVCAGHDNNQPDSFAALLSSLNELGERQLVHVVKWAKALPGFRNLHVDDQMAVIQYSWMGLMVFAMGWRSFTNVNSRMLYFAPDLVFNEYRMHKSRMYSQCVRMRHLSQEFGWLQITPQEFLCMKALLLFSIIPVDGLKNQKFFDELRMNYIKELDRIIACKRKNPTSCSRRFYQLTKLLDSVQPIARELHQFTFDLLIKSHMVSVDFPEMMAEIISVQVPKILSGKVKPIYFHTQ
UniProt P10275, whole entry F877L: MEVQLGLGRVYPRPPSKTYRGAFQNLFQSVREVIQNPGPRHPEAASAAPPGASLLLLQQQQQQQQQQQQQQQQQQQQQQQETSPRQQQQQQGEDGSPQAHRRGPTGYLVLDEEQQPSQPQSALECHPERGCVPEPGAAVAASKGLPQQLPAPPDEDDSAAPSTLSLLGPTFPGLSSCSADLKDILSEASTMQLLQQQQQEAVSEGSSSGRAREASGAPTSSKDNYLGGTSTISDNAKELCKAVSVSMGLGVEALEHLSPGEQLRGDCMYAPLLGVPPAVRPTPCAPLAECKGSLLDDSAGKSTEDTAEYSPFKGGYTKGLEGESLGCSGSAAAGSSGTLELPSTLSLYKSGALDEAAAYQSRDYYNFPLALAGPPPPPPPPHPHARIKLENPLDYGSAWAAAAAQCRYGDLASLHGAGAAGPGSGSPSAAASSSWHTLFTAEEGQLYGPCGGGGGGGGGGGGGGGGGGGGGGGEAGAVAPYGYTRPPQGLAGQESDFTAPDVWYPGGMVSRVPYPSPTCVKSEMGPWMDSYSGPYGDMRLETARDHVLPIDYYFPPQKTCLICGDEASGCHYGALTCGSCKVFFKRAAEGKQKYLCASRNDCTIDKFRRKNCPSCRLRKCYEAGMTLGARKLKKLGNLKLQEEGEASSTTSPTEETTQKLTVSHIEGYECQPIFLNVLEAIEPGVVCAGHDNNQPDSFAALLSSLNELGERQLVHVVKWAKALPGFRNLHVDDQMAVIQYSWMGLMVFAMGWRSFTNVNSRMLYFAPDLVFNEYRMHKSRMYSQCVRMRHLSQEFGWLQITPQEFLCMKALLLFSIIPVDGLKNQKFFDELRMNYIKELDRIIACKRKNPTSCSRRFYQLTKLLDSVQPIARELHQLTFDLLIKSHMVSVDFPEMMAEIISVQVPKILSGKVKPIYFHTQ
UniProt P10275, whole entry T878A: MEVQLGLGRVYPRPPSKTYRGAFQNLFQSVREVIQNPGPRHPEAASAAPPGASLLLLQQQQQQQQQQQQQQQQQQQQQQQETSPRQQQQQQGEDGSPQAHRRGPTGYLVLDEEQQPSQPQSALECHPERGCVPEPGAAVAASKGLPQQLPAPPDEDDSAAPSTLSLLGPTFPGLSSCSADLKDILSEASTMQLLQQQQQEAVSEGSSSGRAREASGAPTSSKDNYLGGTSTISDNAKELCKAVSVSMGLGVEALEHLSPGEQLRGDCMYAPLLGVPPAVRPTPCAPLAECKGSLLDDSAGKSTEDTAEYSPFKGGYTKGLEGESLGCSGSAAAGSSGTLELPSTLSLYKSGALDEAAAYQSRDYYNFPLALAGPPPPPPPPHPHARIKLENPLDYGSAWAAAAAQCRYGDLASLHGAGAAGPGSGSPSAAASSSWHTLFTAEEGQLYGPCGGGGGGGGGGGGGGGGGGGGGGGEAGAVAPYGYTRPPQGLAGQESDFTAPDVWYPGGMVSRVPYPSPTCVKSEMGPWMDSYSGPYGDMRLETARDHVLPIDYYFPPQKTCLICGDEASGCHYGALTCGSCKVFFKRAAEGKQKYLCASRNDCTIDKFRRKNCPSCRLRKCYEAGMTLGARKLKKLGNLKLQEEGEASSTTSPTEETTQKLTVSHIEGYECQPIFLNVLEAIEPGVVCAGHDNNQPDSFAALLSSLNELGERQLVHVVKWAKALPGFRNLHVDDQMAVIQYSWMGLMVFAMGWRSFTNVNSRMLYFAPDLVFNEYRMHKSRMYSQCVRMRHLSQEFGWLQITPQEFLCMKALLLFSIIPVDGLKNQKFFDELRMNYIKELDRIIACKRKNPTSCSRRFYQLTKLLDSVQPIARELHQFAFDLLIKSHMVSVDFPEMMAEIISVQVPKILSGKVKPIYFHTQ

How the values were obtained:
Format in all cases: cell-based
[1] = target: Androgen receptor (Homo sapiens, UniProt P10275); assay: Antagonist activity at AR wild type in human LNCaP cells assessed as reduction in R1881-induced PSA expression at 0.0114 to 25 uM after 24 hrs by Alexa Fluor 568 staining based immunofluorescence analysis; details: filed as antagonist, dose 0.0114-25 µM
[2] = system: Androgen receptor (Homo sapiens), P10275 [L702H]; assay: Antagonist activity at AR L702H mutant (unknown origin) transfected in human HepG2 cells cotransfected with ARE-LUC assessed as inhibition of R1881-induced receptor transactivation incubated for 48 hrs by steady-glo luciferase reporter gene assay; details: filed as antagonist
[3] = system: Androgen receptor (Homo sapiens), P10275 [W742C]; assay: Antagonist activity at AR W742C mutant (unknown origin) transfected in human HepG2 cells cotransfected with ARE-LUC assessed as inhibition of R1881-induced receptor transactivation incubated for 48 hrs by steady-glo luciferase reporter gene assay; details: filed as antagonist
[4] = system: Androgen receptor (Homo sapiens), P10275 [UNDEFINED MUTATION]; assay: Antagonist activity at AR W875L mutant (unknown origin) transfected in human HepG2 cells cotransfected with ARE-LUC assessed as inhibition of R1881-induced receptor transactivation incubated for 48 hrs by steady-glo luciferase reporter gene assay; details: filed as antagonist
[5] = system: Androgen receptor (Homo sapiens), P10275 [F877L]; assay: Antagonist activity at AR F877L in human LNCaP cells assessed as reduction in R1881-induced PSA expression at 0.0114 to 25 uM after 24 hrs by Alexa Fluor 568 staining based immunofluorescence analysis; details: filed as antagonist, dose 0.0114-25 µM
[6] = system: Androgen receptor (Homo sapiens), P10275 [T878A]; assay: Antagonist activity at AR T878A mutant (unknown origin) transfected in human HepG2 cells cotransfected with ARE-LUC assessed as inhibition of R1881-induced receptor transactivation incubated for 48 hrs by steady-glo luciferase reporter gene assay; details: filed as antagonist
[7] = system: Androgen receptor (Homo sapiens), P10275 [F877L]; assay: Antagonist activity at AR F877L in human LNCaP cells assessed as reduction in cytoplasm to nuclear translocation of AR at 0.0114 to 25 uM after 24 hrs in absence of AR agonist R1881 by Alexa Fluor 488 staining based immunofluorescence analysis; details: filed as antagonist, dose 0.0114-25 µM

Measured: Activity

CN1CCC(Oc2ccc(N3C(=S)N(c4cnc(C#N)c(C(F)(F)F)c4)C(=O)C34CCC4)cc2)CC1
active: [1] | [2] | [3] | [4] | [5] | [6] | [7]
